From patent US11459499B2, “Amidoamine-based gemini surfactant containing ethoxylate units and a method for oil recovery” (King Fahd University of Petroleum and Minerals, priority 2018, dated 2022)
“Also recorded” adds a separate entry of the source.

How the values were obtained:
Type in all cases: physicochemical
[1] = Solubility and salt tolerance test in DW, SW and FW; conditions: 10 wt % solutions, 90° C. for 90 days
Source text: The solubility was monitored during this 90-day period.
The solubility results are outlined in Table 2.

[2] = Long-term heat stability by aging, then NMR and FT-IR; conditions: 10 wt % in SW and DW, 90° C. for 3 months
Method: The vials were left in the oven at 90° C. for 3 months. The samples were then taken out and subjected to NMR and FT-IR analysis after the aging.
The signals at δ 51.1 ppm indicated the existence of CH3 moieties connected with the quaternary ammonium head groups. Similarly, methylene moieties directly attached to the quaternary ammonium head groups were also observed at δ 62.1 ppm and δ 64.4 ppm. The overlapping peaks at δ70.0-71.5 ppm indicated the existence of ethylene oxide groups [—CH2—CH2—O—CH2—CH2—O—]. The peak at δ171.1 indicated the occurrence of the amide group. […] Signals at δ 3.22 ppm indicated the presence of CH3 moieties associated with the quaternary ammonium head groups. […] The broad peak at δ 7.99 ppm indicated the occurrence of the amide group. […] The amide I and amide II bands at 1654 cm^−1 and 1542 cm^−1, respectively were also observed. Moreover, the stretching mode of the ether moieties [—CH2—CH2—O—CH2—CH2—O—] was detected at 1110 cm^−1. Accordingly, proton and carbon NMR, as well as FT-IR spectra of the aged sample of 12-E2-12 matched well with the proposed structure of 12-E2-12.

[3] = Foam stability (DFA 100 foam analyzer); conditions: surfactant concentration 0.1%, ambient temperature; compared to commercial surfactants
Method: Foam analysis was performed using a DFA 100 foam analyzer (Kruss GmbH, Germany). A filter paper with a pore size of 16-40 μm was placed in the filter paper holder. The filter paper holder was then placed in a measuring column holder. A sample volume of 50 mL was placed carefully into the column with a syringe and a long needle. A measuring column with a prism was attached to the holder with the filter paper holder at the center. The LED and light sensors were 1 mm apart from the measuring column to ensure accurate foam height detection. A middle field of view set on the camera was used to get bubbles of intermediate sizes. Camera calibration was done with the dots imprinted at the top of the prism. The camera height was then set at 85 cm with the aid of the meter rule on the equipment to be close to the foam-liquid interface after calibration. Foam generation was done for 20 s using flowing air through the filter paper at a rate of 0.2 L/min.
The foamability and foam stability are two important properties to evaluate the performance of surfactants for foaming applications. All measurements were conducted at a fixed surfactant concentration (0.1%) at ambient temperature. The foamability of the synthesized surfactants was slightly smaller compared to the commercial surfactants. […]

cationic poly(ethylene oxide) gemini surfactant [12-E1-12]
solubility in FW and SW [1]: poorer solubility; also recorded: precipitate

cationic poly(ethylene oxide) gemini surfactant [12-E2-12]
long-term heat stability after aging [2]: good stability and no structure decomposition; also recorded: excellent long-term heat stability
solubility in DW, SW and FW [1]: stayed clear; also recorded: excellent solubility
foam stability [3]: significantly higher; also recorded: superior foaming properties
